# Values quoted from earlier work, collected in patent US7592457B2 (Korea Research Institute of Chemical Technology, priority 2004, dated 2009).
# Chains of the proteins cited; added tags and fusions are not shown.
# UniProt P50406, whole entry: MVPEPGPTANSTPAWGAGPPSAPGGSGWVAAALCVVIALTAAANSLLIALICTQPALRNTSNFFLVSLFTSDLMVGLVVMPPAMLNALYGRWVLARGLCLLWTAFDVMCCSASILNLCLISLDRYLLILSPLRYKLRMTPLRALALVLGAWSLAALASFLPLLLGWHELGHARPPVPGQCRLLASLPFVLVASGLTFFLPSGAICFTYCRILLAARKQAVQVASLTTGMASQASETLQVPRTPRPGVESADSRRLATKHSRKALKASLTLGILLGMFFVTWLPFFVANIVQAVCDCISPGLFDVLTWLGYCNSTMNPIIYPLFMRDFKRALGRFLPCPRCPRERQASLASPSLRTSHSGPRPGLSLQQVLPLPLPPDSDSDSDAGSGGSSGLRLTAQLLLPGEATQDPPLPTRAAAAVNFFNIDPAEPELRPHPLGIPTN
# Assays:
# 5-HT6 receptors [1] = target: T1, 5-HT6 receptors (Homo sapiens, UniProt P50406); conditions: antagonist of cAMP accumulation, literature; cited from earlier work
# [2] = system: 50 other receptor/binding sites; conditions: literature; cited from earlier work
# [3] = literature; cited from earlier work
# 5-HT6 receptors [4] = target: T1, 5-HT6 receptors; conditions: literature, cited from earlier work
compound,measurement,setting,value
COc1ccc(NS(=O)(=O)c2ccc(Br)cc2)cc1N1CCN(C)CC1,pKb,5-HT6 receptors [1],7.8
same,affinity for 50 other receptor/binding sites,[2],no measurable affinity
same,bioavailability (in words),[3],low bioavailability
same,brain penetrant,[3],25%
same,clearance (in words),[3],rapid blood clearance
same,Ki,5-HT6 receptors [4]; 5-HT6 receptors,5 nM
same,selectivity over 10 other 5-HT receptors,5-HT6 receptors [4],> 50 fold
